Data: US10316021B2, “Heteroarylphenoxy benzamide kappa opioid ligands” (Pfizer Inc., priority 2016, dated 2019)

Protein sequences, listed by entry. Tags and fused reporters are not part of them.
UniProt P35372, whole entry: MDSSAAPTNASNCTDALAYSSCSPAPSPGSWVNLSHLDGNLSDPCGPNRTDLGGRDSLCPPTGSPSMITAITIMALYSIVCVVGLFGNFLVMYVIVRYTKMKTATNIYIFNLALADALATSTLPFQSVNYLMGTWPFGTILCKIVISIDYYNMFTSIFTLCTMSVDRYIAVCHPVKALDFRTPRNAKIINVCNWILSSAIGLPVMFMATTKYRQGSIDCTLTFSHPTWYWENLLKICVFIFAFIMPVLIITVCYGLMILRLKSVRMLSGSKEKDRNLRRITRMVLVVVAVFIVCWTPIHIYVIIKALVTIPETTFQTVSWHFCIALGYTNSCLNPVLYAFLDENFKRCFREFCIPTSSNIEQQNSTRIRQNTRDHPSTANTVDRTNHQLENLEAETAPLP
UniProt P41145, whole entry: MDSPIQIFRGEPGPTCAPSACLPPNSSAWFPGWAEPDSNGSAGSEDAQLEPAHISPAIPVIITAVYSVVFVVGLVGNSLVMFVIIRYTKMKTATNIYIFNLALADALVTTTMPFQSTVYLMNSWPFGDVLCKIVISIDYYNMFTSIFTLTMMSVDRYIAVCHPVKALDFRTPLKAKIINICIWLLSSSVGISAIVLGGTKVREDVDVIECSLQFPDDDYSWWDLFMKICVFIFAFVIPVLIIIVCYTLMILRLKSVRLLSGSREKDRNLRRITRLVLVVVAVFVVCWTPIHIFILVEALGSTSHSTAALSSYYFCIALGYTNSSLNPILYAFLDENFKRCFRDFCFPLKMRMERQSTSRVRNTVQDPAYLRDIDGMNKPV

Assays:
[1] = molecular target: human mu opioid receptor (hMOR) (Homo sapiens, UniProt P35372); test: Mu radioligand binding assay ([3H]diprenorphine, CHO cell membranes); conditions: read-out: hMOR binding assay Ki; Table 19; geometric mean of 2-6 determinations unless otherwise indicated (Example 3: >=7)
[2] = molecular target: human kappa opioid receptor (hKOR) (Homo sapiens, UniProt P41145); test: Kappa radioligand binding assay ([3H]diprenorphine, CHO cell membranes); conditions: read-out: hKOR binding assay Ki; Table 19; geometric mean of 2-6 determinations unless otherwise indicated (Example 3: >=7)
Procedure: Kappa and Mu Radioligand Binding Assay:
Binding assays on membranes from CHO cells expressing human kappa or mu opioid receptors were performed according to standard procedures. Frozen cell paste was homogenized in 50 mM Tris HCl buffer (pH 7.4 @ 4 degrees C.) containing 2.0 mM MgCl2 using a Polytron and spun in a centrifuge at 40,000 g for ten minutes. The final pellet was resuspended in assay buffer (50 mM Tris HCl buffer, pH 7.4, containing 1 mM EDTA, 5 mM MgCl2). Incubations were initiated by the addition of membranes to 96-well plates containing test drugs and [^3H]diprenorphine (0.6 nM final concentration for kappa opioid receptor and 0.5 nM final concentration for mu) in a final volume of 250 μl. Non-specific binding was determined by radioligand binding in the presence of a saturating concentration of naltrexone (10 μM). […] Membrane bound [^3H]diprenorphine levels were determined by liquid scintillation counting of the filterplates in Ecolume scintillation fluid. […] Ki values were calculated according to the Cheng Prusoff equation, Ki=IC50/(1+(L/Kd)), where L is the concentration of the radioligand used in the experiment and the Kd value is the dissociation constant for the radioligand (determined previously by saturation analysis).

## Cc1nn(C)cc1C1CCCN1Cc1ccc(Oc2ccc(C(N)=O)cc2F)cc1 (single isomer, unassigned) [Example 5, 4-(4-{[2-(1,3-Dimethyl-1H-pyrazol-4-yl)pyrrolidin-1-yl]methyl}phenoxy)-3-fluorobenzamide]
[1]
  Ki: 40.7 nM
[2]
  Ki: 1.06 nM
